Measured values as given in EP3293246A1, “LUBRICANT COMPOSITIONS CONTAINING DIUREA COMPOUNDS” (BASF SE, priority 2016, dated 2018).

Legend:
[1] = Solubility 0.5% in base oil Yubase 4, visual inspection of appearance; type: physicochemical; conditions: 0.5 g compound stirred with 99.5 g Yubase 4 at 100°C for 4 hours, cooled to room temperature
Experimental: For the determination of the solubilities, 0.5 g of the compound under test was stirred with 99.5 g of Yubase 4 at 100°C for 4 hours and subsequently cooled to room temperature. The appearance of the solution was assessed by visual inspection.

[2] = Relative viscosity of 0.5% solutions in Yubase 4, Stabinger viscometer; type: physicochemical; conditions: 0.5% in Yubase 4, 25°C; ratio of viscosity of solution to viscosity of solvent
Experimental: Viscosities of different compounds (each 0.5% in Yubase 4 obtained from the solubility determinations. The relative viscosities (ratio of the viscosity of the solution to the viscosity of the solvent) of the solutions at 25°C were determined using a Stabinger viscometer (equivalent to ASTM D445).

Question: What does the source list for “2,4-bis-(polyisobuteneureido)-toluene [Example 9]”?
Answer: Solubility 0.5% in Yubase 4; visible appearance [1]: clear solution, not visibly more viscous than Yubase 4; Relative viscosity [2]: 1.0
